scFv variants of Ab-91 (heavy chain) against a SARS-CoV-2 spike peptide

From the AlphaSeq antibody data of Engelhart et al. 2022 (doi:10.1038/s41597-022-01779-4), copy in the FLAb collection.

Target: peptide PDVDLGDISGINAS, taken from heptad repeat 2 (HR2) of SARS-CoV-2 spike.

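AAYL51 was designed without a model: most single CDR substitutions and a random sample of double and triple ones. AlphaSeq pools MATa yeast showing the antibodies with MATalpha yeast showing the peptide. After mating in shaken culture at 30 °C for 16 h, diploids were selected and their barcode pairs sequenced. Each replicate has its own calibration line, from reference interactions of the BCL2 family. Mating was done three times.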

Ab-91 is the parent antibody, in scFv form: VL, then the linker GGGGSGGGGSGGGGS, then VH. The light chain is unchanged in all variants.
VL: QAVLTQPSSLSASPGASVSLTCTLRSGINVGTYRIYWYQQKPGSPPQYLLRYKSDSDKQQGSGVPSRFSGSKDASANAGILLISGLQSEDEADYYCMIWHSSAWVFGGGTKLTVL
VH: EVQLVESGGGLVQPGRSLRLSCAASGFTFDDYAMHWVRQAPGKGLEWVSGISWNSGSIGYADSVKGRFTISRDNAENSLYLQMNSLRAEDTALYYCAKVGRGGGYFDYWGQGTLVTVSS

Variants are written as CDR1, CDR2 and CDR3 of the heavy chain (limits as in the source). Parent: GFTFDDYAMH, GISWNSGSIGYADSVK, VGRGGGYFDY. The read-out is the apparent dissociation constant on a log10 scale (nM): the lower, the stronger. An entry "nd" has no value in the source: the pair was not observed among the diploids in that replicate. This suggests poor binding but is not conclusive. For reference, the parent read 1.86 as the reference entry and 0.88 as a member of this library. Nonspecific signal, from three strains lacking the peptide, appeared in 21% of pairings of library AAYL51, centred on 4.54 (5% of these signals below 3.26); values are not corrected for it. Also given: how often the same scFv was detected with the empty control strains.

For GFTFDDQLMH / GISWNSGSIGYADSVK / VGRGGGYFDY, the assay gave nd, nd, nd (controls 1 of 9).
For GFCFDDYAMH / GQSWNSGSIGYADSVK / VGRGIGYFDY, the assay gave nd, nd, 4.46 (controls 2 of 9).
For GGTFDDYAGH / GISWNSGSEGYADSVK / VGRGGGYFDY, the assay gave nd, nd, 4.46 (controls 0 of 9).
For YFTFDDYAML / GISWNSGSIGYADSVK / VGRGGGYFDY, the assay gave nd, nd, nd (controls 0 of 9).
For GCTFDDYAMH / GISWNSGSIGYADSVK / VGRGGNYFDY, the assay gave nd, nd, nd (controls 2 of 9).
For GFTFDDYAMH / GIEWNSGSIGYAKSVK / IGRGGGYFDY, the assay gave nd, nd, nd (controls 0 of 9).
For GFVFDDYAMH / GISWNQGSIGYADSVK / VSRGGGYFDY, the assay gave nd, nd, nd (controls 0 of 9).
For GFTTDDYAMH / GFSWNSGSIGYADSVK / VGRGGGYFDH, the assay gave nd, nd, nd (controls 2 of 9).
For AFTQDDYAMH / GISWNSGSISYADSVK / VGRGGGYFDY, the assay gave 3.78, nd, nd (controls 6 of 9).
For GGTFDDYAMA / GISWNSGSIGTADSVK / VGRGGGYFDY, the assay gave nd, 4.41, 3.85 (controls 2 of 9).
For GFTFDDYAMH / GPSWNSGSLGYADSVK / VGRVGGYFDY, the assay gave 4.93, nd, nd (controls 4 of 9).
For GFTFDDIAMH / GISWKSGSIGYADSVK / VGRGGGYFDF, the assay gave nd, nd, nd (controls 1 of 9).
For GLTFDDYAMH / GISWNSASIGYADSQK / VGRGGGYFDY, the assay gave nd, nd, nd (controls 1 of 9).
For GFTFDDEAMH / GISWNSGSIGYDDSVK / VGRGGGYFWY, the assay gave nd, nd, nd (controls 0 of 9).
For GFTFDDCAMH / GISWNSGSIGYADRVK / LGRGGGYFDY, the assay gave nd, nd, nd (controls 2 of 9).
For GFTDDDYAMH / GISWNSGSIGYADSVK / VGRGAGYFTY, the assay gave nd, nd, nd (controls 1 of 9).
For GFTSDDYAMH / GIFWNSYSIGYADSVK / VGRGGGYFDY, the assay gave 5.07, nd, 5.03 (controls 5 of 9).
For GFTFDDYCMH / GISWSSGSIGYADSVK / VGTGGGYFDY, the assay gave nd, nd, 4.28 (controls 6 of 9).
For GFTFDDYWMH / GISWKSGSIGYADSVK / VGRFGGYFDY, the assay gave nd, nd, nd (controls 1 of 9).
For GFTQDDYAMH / GISWHSGSIGYADSVK / VGRGQGYFDY, the assay gave nd, nd, nd (controls 1 of 9).
For GFTFDDTAMH / GISVHSGSIGYADSVK / VGRGGGYFDY, the assay gave nd, 4.46, nd (controls 5 of 9).
For GFTFIDYGMH / GISWNSGSIGPADSVK / VGRGGGYFDY, the assay gave nd, nd, nd (controls 0 of 9).
For GFTFDDYAMH / GISWNSGSITYATSVK / VGRGGGYFDY, the assay gave nd, 5.44, nd (controls 1 of 9).
For GFTFDDYAMR / GPSWNSGSIGDADSVK / VGRGGGYFDY, the assay gave 6.23, nd, nd (controls 0 of 9).
For RFTFDDYAMH / GISWNSGSIGYADSGK / VGMGGGYFDY, the assay gave 5.50, nd, nd (controls 3 of 9).
For GFTFDDYAMH / GISPNSGSIGYADSVK / VGRGNGIFDY, the assay gave 1.50, 1.47, 1.12 (controls 3 of 9).
For GFTFDDYAWH / GISWNNGSIGYADSVK / VGRGGNYFDY, the assay gave nd, nd, nd (controls 0 of 9).
For GFTFDDYQMH / GISWNSGSIGYPDSVK / EGRGGGYFDY, the assay gave nd, 3.90, nd (controls 0 of 9).
For GFTFDMYAMH / GISWNSGSIGYADSVK / VGFGGGYFDY, the assay gave 3.20, 1.41, 0.81 (controls 0 of 9).
For GFTFDDYAMM / GISWNSGSIGYRDLVK / VGRGGGYFDY, the assay gave 4.97, 5.42, 5.85 (controls 7 of 9).
For GFTFDDYAMH / GISWNKGSIGSADSVK / LGRGGGYFDY, the assay gave nd, nd, 3.76 (controls 0 of 9).
For GITFDDYAMH / GISWNSGSIGYVDSVK / VGRGGGWFDY, the assay gave nd, nd, nd (controls 0 of 9).
For GFTFDDYAMH / GISGNSGPIGYADSDK / VGRGGGYFDY, the assay gave nd, nd, nd (controls 0 of 9).
For GFTFDDYAMH / HISWNSGSIGYEDSYK / VGRGGGYFDY, the assay gave nd, nd, nd (controls 0 of 9).
For GHTFDDIAMH / GISWNSGSIGYADSVK / VCRGGGYFDY, the assay gave 5.01, 4.27, 4.23 (controls 1 of 9).
For GFTFDDYAMW / GISWNSGSVGYADHVK / VGRGGGYFDY, the assay gave 4.46, 4.18, nd (controls 3 of 9).

For reference, 3 entries of the list once more:

CDR-H1,CDR-H2,CDR-H3,log10 Kd (nM) by replicate,signal with controls
GFTFDDYAMR,GPSWNSGSIGDADSVK,VGRGGGYFDY,"6.23, nd, nd",0/9
GFTFDDYCMH,GISWSSGSIGYADSVK,VGTGGGYFDY,"nd, nd, 4.28",6/9
GFTFDDTAMH,GISVHSGSIGYADSVK,VGRGGGYFDY,"nd, 4.46, nd",5/9